Where a name gives a salt, the structure may show the parent alone.
Test: Solubility comparison in water, SGF, FaSSIF and FeSSIF (HPLC of filtrates, XRPD of filter cakes)
Details: for Solubility - 0.5 h / Solubility -24 h / Solubility -2 h: 37°C; for XRPD-24h: filter cake
[1] = FaSSIF*, HPLC of supernatant after centrifugation
[2] = FeSSIF, listed as crystalline form C of benzenesulfonate of compound A
[3] = Water, listed as crystalline form C of benzenesulfonate of compound A

Q: Which results are given for CC(=O)c1c(C)c2cnc(Nc3ccc4c(c3)OC[C@@H]3CN(C5CCN(C)CC5)CCN43)nc2n(C2CCCC2)c1=O [crystalline form B of the hydrochloride salt of compound A]?
A: Solubility - 0.5 h (FaSSIF, listed as crystalline form B of hydrochloride monohydrate of compound A, 30 min): 240 µg/mL; XRPD-24h (FaSSIF): Unchanged; Solubility - 0.5 h (FeSSIF, listed as crystalline form B of hydrochloride monohydrate of compound A, 30 min): 1630 µg/mL; XRPD-24h (FeSSIF, listed as crystalline form B of hydrochloride monohydrate of compound A): Unchanged; Solubility - 0.5 h (Water, listed as crystalline form B of hydrochloride monohydrate of compound A, 30 min): 3320 µg/mL; Solubility -24 h (Water, listed as crystalline form B of hydrochloride monohydrate of compound A, 1440 min): 3450 µg/mL; XRPD-24h (Water): Unchanged

Q: For CC(=O)c1c(C)c2cnc(Nc3ccc4c(c3)OC[C@@H]3CN(C5CCN(C)CC5)CCN43)nc2n(C2CCCC2)c1=O [crystalline form C of the benzenesulfonate of compound A], which “Solubility - 0.5 h” value (FaSSIF*, HPLC of supernatant after centrifugation (particle breakthrough on filtration)) is on record?
A: Its value is 40 µg/mL.

Q: And the “Solubility -2 h” value [1]?
A: The value was 60 µg/mL.

Q: And the “Solubility -24 h” value [1]?
A: The value was 180 µg/mL.

Q: And the XRPD-24h (FaSSIF)?
A: The XRPD-24h was “transformed to the crystalline form I of the hydrochloride salt”.

Q: And the XRPD-24h (FaSSIF, listed as crystalline form C of benzenesulfonate of compound A)?
A: Its XRPD-24h is “transformation to crystalline form B of the hydrochloride salt after 0.5 h”.

Q: What about the “Solubility - 0.5 h” value [2] of the same molecule?
A: Its value is 1430 µg/mL.

Q: What about the “Solubility -24 h” value [2] of the same molecule?
A: Its value is 1370 µg/mL.

Q: What about the XRPD-24h (FeSSIF) of the same molecule?
A: Its XRPD-24h is “became viscous”.

Q: What about the XRPD-24h [2] of the same molecule?
A: Its XRPD-24h is “Viscous solid”.

Q: What about the “Solubility - 0.5 h” value (SGF) of the same molecule?
A: The value was greater than 5000 µg/mL.

Q: And the “Solubility -2 h” value (SGF)?
A: The value was greater than 5000 µg/mL.

Q: What about the “Solubility -24 h” value (SGF) of the same molecule?
A: The value was greater than 5000 µg/mL.

Q: And the “Solubility - 0.5 h” value [3]?
A: The value was 3770 µg/mL.

Q: What about the “Solubility -24 h” value (Water) of the same molecule?
A: Its value is “greater than 5 mg/mL”.

Q: What about the XRPD-24h [3] of the same molecule?
A: The XRPD-24h was “Clear”.

Q: For CC(=O)c1c(C)c2cnc(Nc3ccc4c(c3)OC[C@@H]3CN(C5CCN(C)CC5)CCN43)nc2n(C2CCCC2)c1=O [Compound A], which XRPD-24h (FeSSIF) is on record?
A: Its XRPD-24h is “became viscous”.

Reference: patent publication EP4653445A1, “CDK INHIBITOR AND CRYSTAL FORM OF PHARMACEUTICALLY ACCEPTABLE SALT THEREOF, AND USE THEREOF” (CSPC Zhongqi Pharmaceutical Technology (Shijiazhuang) Co., …, priority 2023, dated 2024)
